Measured values from patent US20080167385A1, “Crystal Structure of Human Proliferating Cell Nuclear Antigen (Pcna) and Uses Thereof” (priority 2004, published 2008).
Like-named read-outs stand apart in the source and are kept apart here.

Protein sequences, listed by entry. Tags and fused reporters are not part of them. Lines headed by an entry give the natural chain unless they say otherwise; changes in a name come on top.
UniProt P11802: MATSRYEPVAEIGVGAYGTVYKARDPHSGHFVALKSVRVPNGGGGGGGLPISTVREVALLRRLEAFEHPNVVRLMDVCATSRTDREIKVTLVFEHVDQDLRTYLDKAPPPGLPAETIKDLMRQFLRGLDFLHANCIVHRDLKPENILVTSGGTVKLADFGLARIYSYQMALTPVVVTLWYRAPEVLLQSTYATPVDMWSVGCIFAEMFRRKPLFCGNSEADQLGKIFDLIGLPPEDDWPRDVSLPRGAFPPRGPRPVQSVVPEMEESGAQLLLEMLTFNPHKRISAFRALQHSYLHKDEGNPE
UniProt P24385, whole entry: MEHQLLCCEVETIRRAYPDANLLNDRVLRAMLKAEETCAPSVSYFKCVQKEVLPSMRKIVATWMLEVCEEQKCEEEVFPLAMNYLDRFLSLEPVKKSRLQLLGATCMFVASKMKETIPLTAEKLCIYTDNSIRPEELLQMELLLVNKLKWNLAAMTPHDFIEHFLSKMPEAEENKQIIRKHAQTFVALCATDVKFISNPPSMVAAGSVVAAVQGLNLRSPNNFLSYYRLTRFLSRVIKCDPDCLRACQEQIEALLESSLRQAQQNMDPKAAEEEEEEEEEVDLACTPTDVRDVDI

Molecular target: T1, CDK4/cyclin D1 (Homo sapiens, UniProt P11802+P24385)
T1 construct: His6 (N); made in house; host or cells: CDK4: Sf9 insect cells (baculovirus); GST-pRb: E. coli BL21(DE3)
Experiment: CDK4/cyclin D1 kinase assay (in vitro pRb phosphorylation)
Type: biochemical

IC50 (1 μM CDK4/cyclin D1, no peptide, read-out: IC50, inhibition of CDK4/cyclin D1 kinase activity by PCNA): 18 ± 2.4 µM | phosphorylation of pRb (at 30 μM PCNA): almost completely abolished | IC50 (in the presence of 25 μM CM peptide, read-out: IC50, inhibition of CDK4/cyclin D1 function by PCNA): 15 ± 1.8 µM
Substance: PCNA: Recombinant human PCNA expressed in Escherichia coli BL21(DE3)
kinase activity of 1 μM CDK4/cyclin D1 (at up to 10 μM PCNA): undiminished
